This passage reports z-score results from PubChem BioAssay AID1963822 (ICCB-Longwood Screening Facility, Harvard Medical School, 2024).

The list shows a part of the results, in another mix than the full data. Some results for these compounds are left out of this collection, so the calls shown say nothing about other tests. Active and inactive are the calls of the source. No rule for the calls is given here.

This assay in a line: anaerobic choline-dependent bacterial growth inhibition – minimal medium, absorbance (AID 1963822). To be noted: Gram-negative bacterium anaerobic choline minimal medium, hits give low values.
`Cc1ccc2oc(C(=O)NCC3(N(C)C)CCCCC3)c(C)c2c1`: the z-score is inactive: -0.31.
In the case of `Cc1cc(C)c2c(C)c(C(=O)NCC3(N(C)C)CCCCC3)oc2c1`, the z-score was inactive: -0.5.
For `Cc1c(C(=O)NCC2(N(C)C)CCCCC2)oc2ccccc12`, the z-score was inactive: -0.37.
For `Cc1cc2oc(C(=O)NCC3(N(C)C)CCCCC3)c(C)c2cc1Cl`, the z-score is inactive: -0.37.
On to `Cc1c(C(=O)NCC2(N(C)C)CCCCC2)oc2ccc(F)cc12`, for which the z-score was inactive: -2.34.
Turning to `Cc1ccc2c(C)c(C(=O)NCC3(N(C)C)CCCCC3)oc2c1`, the z-score is inactive: 0.85.
In the case of `Cc1ccc2c(Cl)c(C(=O)NCC3(N(C)C)CCCCC3)sc2c1`, the z-score was inactive: 0.04.
